Yeast UUG start = modulators of start codon recognition fidelity in yeast; activity score, % at 18.7 µM; actives 0.13% (n = 350,000); S. cerevisiae UUG-firefly luciferase reporter, luminescence/redox ratio;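 active = replicate mean at a twofold rise or more, about +100% in these data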;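 note: firefly luciferase made from a UUG start codon reports start codon fidelity; reporter light over untreated wells divided by growth signal over untreated wells; some hits fall short of that in this replicate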
RAD54 inh = inhibitors of human RAD54 branch migration, primary screen, biochemical, fluorescence, single point | RAD54 Holliday junction branch migration, FAM/BHQ fluorescence | DNA repair and recombination protein RAD54-like (Homo sapiens), Q92698 | hit rate 0.14% among 360,000 | inhibition, % at 10.4 µM;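 active = mean normalized replicate activity at least 40 and at least half of replicates scoring 40 or more; inconclusive = only one of the two criteria met; inactive = mean below 40 and under half of replicates reaching 40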;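 also: inhibitors cause a drop in the FAM fluorescence signal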
Xi reactivation = activators of inactive X chromosome reactivation, primary screen, imaging, XiGFP fibroblasts, GFP high-content imaging, set 2; activation, % at 7.58 µM; XiGFP mouse fibroblasts, % GFP-positive cells imaging, 3 d; cells co-treated with 5-aza-dC sensitizer; scaled so ellipticine positive control = 100%; hit rate 0.055% among 360,000;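 active = mean normalized replicate activation at least 10% and every replicate at or above 10%; inconclusive = only one of the two criteria met; inactive = mean below 10% and not all replicates reach 10%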
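System: 68-5-11 XiGFP fibroblast line | Buffer or medium: DMEM containing 5-aza-dC | Compound: Single point | Times: Compounds 3 days, fix/stain 15 min at room temperature | Benchmarks: Positive control ellipticine, 6 µM final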
E-selectin induc = E-selectin induction in HUVECs, primary screen, imaging, HUVEC, immunofluorescence imaging, single point. normalized: neutral wells 0, TNF-alpha wells 100. hit rate 0.37% among 260,000. P16581. activation, % at 7.58 µM;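 active = mean E-selectin-positive cell signal at least 10% of the positive control, reached in at least 60% of replicates, without over 20% cell loss; inconclusive = no rule given, readout overlaps actives, possibly toxicity-flagged; inactive = the rest, including those meeting only one limit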
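Test system: HUVEC; input: 3,000 HUVEC/well; measured by: immunofluorescence imaging; read-out: % PE-positive cells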
RAD52 anneal inh = RAD52 DNA annealing inhibitors, primary screen, biochemical, FRET, single point, set 2; DNA repair protein RAD52 homolog (Homo sapiens), P43351; recombinant RAD52 DNA annealing, FRET fluorescence; inhibition, % at 18.7 µM; hit rate 0.46% among 360,000;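 active = every replicate showing at least 50% inhibition; inconclusive = mean inhibition at least 50% but not in every replicate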
DNA binder FP = DNA-binding compounds via dye displacement, dose response, artefact control for RAD52 inhibitor project, biochemical, fluorescence polarization, cherry-pick | AC50, µM | hit rate 8% among 1,000 | shares compounds with RAD52 anneal inh | Salmon sperm DNA/acridine orange FP displacement;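 active = fitted half-maximal concentration for signal loss at or below twice the highest dose tested, in every separate run, actives reach about 64 µM in these data; inconclusive = runs disagree, or flat partial signal loss, or poor fit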
Numbers stand for hits; i = inactive; ? = inconclusive; nt = no result given. An excerpt weighted towards active compounds, which were near 0.73% of everything screened.

The chains behind the UniProt entries cited, without tags or fusion partners.
DNA repair and recombination protein RAD54-like (Homo sapiens), Q92698, UniProt Q92698, whole entry, looked up: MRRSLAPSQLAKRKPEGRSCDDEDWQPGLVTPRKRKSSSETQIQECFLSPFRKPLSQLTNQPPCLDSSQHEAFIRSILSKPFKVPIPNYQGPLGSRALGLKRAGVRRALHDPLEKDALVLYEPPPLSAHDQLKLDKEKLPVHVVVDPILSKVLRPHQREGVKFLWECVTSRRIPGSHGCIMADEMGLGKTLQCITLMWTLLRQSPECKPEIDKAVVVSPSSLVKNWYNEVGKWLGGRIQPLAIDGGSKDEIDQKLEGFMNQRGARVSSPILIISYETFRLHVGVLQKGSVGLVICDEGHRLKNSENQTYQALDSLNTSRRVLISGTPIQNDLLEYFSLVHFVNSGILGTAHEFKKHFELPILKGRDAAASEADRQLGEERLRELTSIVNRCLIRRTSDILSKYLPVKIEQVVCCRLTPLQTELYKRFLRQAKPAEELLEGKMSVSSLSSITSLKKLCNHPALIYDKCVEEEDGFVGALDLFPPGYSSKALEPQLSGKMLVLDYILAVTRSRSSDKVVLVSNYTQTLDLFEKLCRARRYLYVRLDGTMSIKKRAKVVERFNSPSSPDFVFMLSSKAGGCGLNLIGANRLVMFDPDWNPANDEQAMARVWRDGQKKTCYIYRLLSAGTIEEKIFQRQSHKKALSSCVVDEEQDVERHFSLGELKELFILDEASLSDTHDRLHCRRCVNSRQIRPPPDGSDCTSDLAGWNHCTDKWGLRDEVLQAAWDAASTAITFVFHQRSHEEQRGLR
DNA repair protein RAD52 homolog (Homo sapiens), P43351, UniProt P43351, whole entry, looked up: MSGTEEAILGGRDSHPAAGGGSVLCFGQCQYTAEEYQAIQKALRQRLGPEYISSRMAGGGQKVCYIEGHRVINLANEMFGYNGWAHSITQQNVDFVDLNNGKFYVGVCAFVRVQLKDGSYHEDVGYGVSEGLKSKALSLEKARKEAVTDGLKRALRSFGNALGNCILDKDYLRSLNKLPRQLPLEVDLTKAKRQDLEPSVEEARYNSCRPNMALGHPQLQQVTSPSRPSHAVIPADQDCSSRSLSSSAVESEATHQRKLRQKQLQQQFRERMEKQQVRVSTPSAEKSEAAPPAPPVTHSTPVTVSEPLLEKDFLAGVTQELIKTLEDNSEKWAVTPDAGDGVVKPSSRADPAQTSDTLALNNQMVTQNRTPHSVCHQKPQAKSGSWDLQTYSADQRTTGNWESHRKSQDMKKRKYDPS

SMILES	Yeast UUG start	RAD54 inh	Xi reactivation	E-selectin induc	RAD52 anneal inh	DNA binder FP
O=C(CN1CCOCC1)N[C@H]1CC[C@@H](CCNC(=O)C2CCC2)O[C@@H]1CO	nt	i	i	i	i	nt
C[C@@H]1CN([C@H](C)CO)C(=O)Cc2cc(NS(C)(=O)=O)ccc2O[C@@H]1CN(C)Cc1ccc(-c2ccccc2)cc1	nt	i	i	i	i	nt
CCCCCCCCCCCCCCCC[n+]1ccccc1	i	55	i	?	93	?
CCCCCCCCCCCCCCCC[n+]1ccc(C(N)=O)cc1	i	i	i	nt	nt	nt
CN(C)C=Nc1ccc2nc3c(cc2c1)[nH]c1ccccc13	nt	nt	i	i	96	23µM
CC(NC(=O)CCc1ccccc1)c1ccc2c(c1)OCO2 (stereo unspecified)	i	i	i	i	108	i
Cc1cc(C)c2c(=N)c3ccccc3n(CCCCCCCCn3c4ccccc4c(=N)c4c(C)cc(C)nc43)c2n1	nt	nt	i	i	67	16µM
CCCCCCCCn1c2c(c(=N)c3ccccc31)CCC2	nt	nt	i	nt	i	nt
O=C(C[C@H]1CC[C@H]2[C@@H](COC[C@H](O)CN2CC2CC2)O1)NCC1CC1	nt	i	i	i	i	nt
C[n+]1ccc(/C=C/c2ccccc2O)c2ccccc21	nt	nt	i	nt	54	46µM
CN(C)CCOC(=O)c1ccc2[nH]c3c(c2c1)CSCC3	nt	nt	i	i	99	i
OCCN1CCN(c2cc(-c3ccc(CO)cc3)nc3ccnn23)CC1	i	i	i	i	i	nt
CC(=O)Nc1cccc(-c2cc(N3CCN(CCO)CC3)n3nccc3n2)c1	i	i	i	i	57	i
CN1CCN(C2Cc3cc(Cl)ccc3Sc3cc(F)ccc32)CC1 (stereo unspecified)	nt	nt	i	i	54	i
CN1CCN(CCCC(=O)c2ccc(C3CCCC3)cc2)CC1	nt	nt	i	i	68	i
NC(=O)[C@H]1[C@@H]2C(=O)O[C@@H](c3ccccc3)[C@@H](c3ccccc3)N2[C@@H](c2ccccc2OCCO)[C@]12C(=O)Nc1ccc(C#CC3(O)CCCCCC3)cc12	i	i	nt	nt	i	nt
COC(=O)C1=CN(Cc2ccc(C)cc2)C=C(C(=O)OC)C1c1cc(OC)c(OC)c(OC)c1	i	i	i	i	95	i
COC(=O)C1=CN(Cc2ccccc2)C=C(C(=O)OC)C1c1ccc(OC)c(OC)c1	i	i	i	nt	i	nt
COCCCNC(=O)c1cc(Nc2ccc(OC)cc2OC)nc2ccccc12	i	i	i	i	i	nt
CCN(CC)CCCNC(=O)c1cc(Nc2ccc(OC)cc2OC)nc2ccccc12	i	i	i	i	i	i
CCCCN1C(N)=NC[C@@H]1Cc1ccc(O)cc1	i	i	i	i	i	nt
NC1=NC[C@H](Cc2ccc(O)cc2)N1CCC12CC3CC(CC(C3)C1)C2	i	i	i	i	53	i
C[C@@H]1CN([C@@H](C)CO)C(=O)c2cc(NC(=O)NC3CCCCC3)ccc2O[C@@H]1CN(C)Cc1ccc(Cl)c(Cl)c1	i	i	i	i	i	nt
COc1cccc(C2=CC(=O)C(C(C)(C)C)N2C(C)(C)C)c1 (stereo unspecified)	i	i	i	i	79	i
Cc1ccccc1C[n+]1cccc2ccccc21	i	i	i	i	i	nt
SMILES	Yeast UUG start	RAD54 inh	Xi reactivation	E-selectin induc	RAD52 anneal inh	DNA binder FP
CCCCCCCCCCCCCCCC[n+]1cccc2ccccc21	nt	nt	i	nt	90	32µM
COc1ccc(OC)c(N/C(N)=N/c2nc(C)cc(C)n2)c1	i	i	i	i	50	i
COc1ccc(C)cc1N/C(N)=N/c1nc(C)cc(C)n1	nt	nt	i	nt	i	nt
CCCNC(=O)C[C@@H]1CC[C@H]2[C@@H](COc3ccc(NC(=O)Nc4ccccc4)cc3C(=O)N2C)O1	i	i	i	i	nt	nt
O=C(NCCCN1CCOCC1)c1ccc(/C=C2\Oc3ccccc3N(Cc3ccccc3F)C2=O)cc1	i	i	i	nt	i	nt
CCN1CCN(CCCNC(=O)c2ccc(/C=C3/Sc4ccccc4N(Cc4ccccc4F)C3=O)cc2)CC1	i	54	i	nt	76	i
CCN1CCN(CCNC(=O)c2ccc(/C=C3/Sc4ccccc4N(Cc4ccccc4C)C3=O)cc2)CC1	i	i	i	nt	55	i
Cc1ccccc1CN1C(=O)c2ccccc2Sc2ccc(C(=O)NCCN3CCOCC3)cc21	i	i	i	nt	i	nt
C[C@@H](CN1CCC[C@H]1CN1C(N)=NC[C@@H]1Cc1ccccc1)N1C[C@@H](Cc2ccccc2)N(CCc2ccc(Cl)c(Cl)c2)C1=N	i	i	nt	nt	nt	nt
CCC[C@@H](CN1CCC[C@H]1CN1C(N)=NC[C@@H]1Cc1ccccc1)N1C[C@@H](Cc2ccccc2)N(CCCC2CCCC2)C1=N	i	i	nt	nt	nt	nt
CCC[C@@H](CN1CCC[C@H]1CN1C(N)=NC[C@H]1CC(C)C)N1C[C@@H]([C@H](C)CC)N(CCc2ccc(Cl)c(Cl)c2)C1=N	i	i	i	i	51	i
CCC[C@@H](CN1CCC[C@H]1CN1C(N)=NC[C@H]1CC(C)C)N1C[C@@H](Cc2ccccc2)N(CCc2ccc(Cl)c(Cl)c2)C1=N	i	i	i	i	65	i
CC[C@@H](C)[C@@H]1CN([C@@H](C)CN2CCC[C@H]2CN2C(N)=NC[C@H]2CC(C)C)C(=N)N1CCc1ccc(Cl)c(Cl)c1	i	i	i	i	i	nt
CC[C@@H](C)[C@@H]1CN([C@@H](CN2CCC[C@H]2CN2C(N)=NC[C@H]2CC(C)C)C(C)C)C(=N)N1CCc1ccc(Cl)c(Cl)c1	i	i	i	i	50	i
CCC[C@@H](CN1CCC[C@H]1CN1C(N)=NC[C@H]1CC(C)C)N1C[C@@H](Cc2ccccc2)N(CCCC2CCCC2)C1=N	i	i	i	nt	58	i
CN(C)c1ccc2c(c1)[C@@H]1C[C@@H](CC(=O)NCCc3ccccc3)O[C@H](CO)[C@@H]1O2	nt	i	i	i	i	nt
CO[C@H]1CN(C)C(=O)c2cc(NC(=O)NC(C)C)ccc2OC[C@H](C)N(CC2CC2)C[C@H]1C	nt	i	i	i	i	nt
CC(=O)N1CCN(c2ccc(N)cc2)CC1	i	i	i	i	58	i
Nc1ccc(N2CCN(c3ccc(F)cc3)CC2)cc1	nt	nt	i	nt	i	nt
C[C@@H]1CN([C@@H](C)CO)C(=O)c2cccc(NS(=O)(=O)c3ccc(Cl)cc3)c2O[C@H]1CN(C)Cc1ccc(Cl)c(Cl)c1	i	i	i	i	i	nt
CCCCCCCCCCCC1N=C(N)NC(CCCO)=C1C(=O)OC (stereo unspecified)	nt	nt	i	i	88	?

Screening results: PubChem BioAssay, Broad Institute
